Target: Histamine H3 receptor (Rattus norvegicus, UniProt Q9QYN8)

By UniProt entry, the sequences of proteins in these tests, tags left out. Where a name states a change or a piece, a line headed by the entry shows the natural chain unless it says otherwise.
UniProt Q9QYN8: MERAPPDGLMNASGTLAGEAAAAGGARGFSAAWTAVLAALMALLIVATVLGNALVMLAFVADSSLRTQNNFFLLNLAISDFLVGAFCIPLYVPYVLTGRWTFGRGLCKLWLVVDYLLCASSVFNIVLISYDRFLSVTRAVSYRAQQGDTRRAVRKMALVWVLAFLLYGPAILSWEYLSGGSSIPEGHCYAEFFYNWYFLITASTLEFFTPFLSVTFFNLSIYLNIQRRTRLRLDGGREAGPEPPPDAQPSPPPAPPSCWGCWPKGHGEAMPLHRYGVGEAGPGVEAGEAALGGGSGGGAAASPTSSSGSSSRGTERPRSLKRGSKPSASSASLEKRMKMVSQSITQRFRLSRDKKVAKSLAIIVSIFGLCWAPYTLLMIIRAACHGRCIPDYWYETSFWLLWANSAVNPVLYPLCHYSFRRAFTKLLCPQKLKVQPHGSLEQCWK

Compound: CN1CCN(C(=O)c2cc3cc(Cl)ccc3[nH]2)CC1
- Ki: 4.7 µM

From BindingDB's records for doi:10.1124/jpet.103.061754 (Johnson & Johnson Pharmaceutical, 2004)
